Test [1] deals with T1, Cannabinoid receptor 2 (Rattus norvegicus, UniProt Q9QZN9).
T1 sequence (Q9QZN9 whole entry): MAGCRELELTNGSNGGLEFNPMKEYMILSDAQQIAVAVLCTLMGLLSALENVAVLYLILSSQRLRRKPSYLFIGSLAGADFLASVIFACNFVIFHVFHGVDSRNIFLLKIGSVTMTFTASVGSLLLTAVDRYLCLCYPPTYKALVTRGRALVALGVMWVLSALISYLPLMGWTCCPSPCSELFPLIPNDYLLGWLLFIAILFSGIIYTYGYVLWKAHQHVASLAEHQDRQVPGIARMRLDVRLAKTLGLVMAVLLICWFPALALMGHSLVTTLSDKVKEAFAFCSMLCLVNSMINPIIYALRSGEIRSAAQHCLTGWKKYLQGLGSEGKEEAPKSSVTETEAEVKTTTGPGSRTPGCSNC

Chains of the proteins cited; added tags and fusions are not shown.
UniProt P34972, whole entry: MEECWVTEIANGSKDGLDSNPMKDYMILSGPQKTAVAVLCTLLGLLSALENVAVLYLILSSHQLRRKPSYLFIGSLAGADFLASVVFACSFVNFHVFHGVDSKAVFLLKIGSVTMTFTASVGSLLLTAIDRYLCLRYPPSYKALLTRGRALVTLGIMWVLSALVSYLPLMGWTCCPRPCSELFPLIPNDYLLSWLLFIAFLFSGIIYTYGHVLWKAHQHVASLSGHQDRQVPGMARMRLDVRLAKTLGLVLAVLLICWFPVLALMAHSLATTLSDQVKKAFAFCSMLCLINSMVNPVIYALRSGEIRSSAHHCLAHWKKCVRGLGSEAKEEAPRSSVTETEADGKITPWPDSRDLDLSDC

In test [2] the target is Cannabinoid receptor 2 (Homo sapiens, UniProt P34972).

SMILES strings stand for the structures.

For the compound `CCCCC/C=C\C/C=C\C/C=C\C/C=C\CCCC(=O)NCCO` [Arachidonoyl ethanolamide], the Ki is > 10000 nM in test [1] and 306 nM in test [2].

The record behind these values is BindingDB's records for PubMed 10688601 (Virginia Commonwealth University, 2000).
